Experiments:
Conditions in all cases: single agent, 6-day treatment
HPAF-II cells = assay: CellTiterGlo in vitro viability (proliferation), HPAF-II
Procedure: (§1) FIG. 1: In vitro viability of the KRAS G12D mutant pancreatic ductal adenocarcinoma cancer cell line HPAF-II was assessed using CellTiterGlo following 6-day treatment with (top) IAG933 combined with MRTX1133, (middle) TNO155 combined with MRTX1133 and (bottom) IAG933 combined with MRTX1133 and 500 nM TNO155. […] .
In vitro viability of the KRAS G12D mutant pancreatic ductal adenocarcinoma cancer cell line HPAF-II was assessed using CellTiterGlo following 6-day treatment with IAG933 combined with MRTX1133 (±TNO155). […] . Further combination with TNO155 provided a further combination benefit (FIG. 1).

ASPC-1 cells = assay: CellTiterGlo in vitro viability (proliferation), ASPC-1
Procedure: as §1, with “2:” for “1:”, “ASPC-I” for “HPAF-II”
In vitro viability of the KRAS G12D mutant pancreatic ductal adenocarcinoma cancer cell line ASPC-1 was assessed using CellTiterGlo following 6-day treatment with IAG933 combined with MRTX1133 (±TNO155). […] . Further combination with TNO155 provided a further combination benefit (FIG. 2).

SW1990 cells = assay: CellTiterGlo in vitro viability (proliferation), SW1990
Procedure: as §1, with “3:” for “1:”, “SW1990” for “HPAF-II”
In vitro viability of the KRAS G12D mutant pancreatic ductal adenocarcinoma cancer cell line SW1990 was assessed using CellTiterGlo following 6-day treatment with IAG933 combined with MRTX1133 (±TNO155). […] . Further combination with TNO155 provided a further combination benefit (FIG. 3).

C#Cc1c(F)ccc2cc(O)cc(-c3ncc4c(N5C[C@H]6CC[C@@H](C5)N6)nc(OC[C@@]56CCCN5C[C@H](F)C6)nc4c3F)c12
inhibited: Proliferation of HPAF-II cells (HPAF-II cells) | Proliferation of ASPC-1 cells (ASPC-1 cells) | Proliferation of SW1990 cells (SW1990 cells)
